From ChEMBL document CHEMBL1153342 (J Med Chem, 2009)

Protein sequences, listed by entry. Tags and fused reporters are not part of them. Lines headed by an entry give the natural chain unless they say otherwise; changes in a name come on top.
UniProt Q9P1W9: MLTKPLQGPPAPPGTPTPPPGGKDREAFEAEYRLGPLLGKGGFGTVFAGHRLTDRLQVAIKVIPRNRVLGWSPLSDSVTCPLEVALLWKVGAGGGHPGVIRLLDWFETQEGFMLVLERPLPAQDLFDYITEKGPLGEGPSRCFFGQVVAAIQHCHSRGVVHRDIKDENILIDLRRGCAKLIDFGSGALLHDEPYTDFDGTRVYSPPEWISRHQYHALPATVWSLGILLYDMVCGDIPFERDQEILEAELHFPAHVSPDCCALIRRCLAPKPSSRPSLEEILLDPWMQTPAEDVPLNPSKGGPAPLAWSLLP

Molecular target: Serine/threonine-protein kinase pim-2 (Homo sapiens, UniProt Q9P1W9)
Test: Inhibition of Pim2 in presence of 1 uM ATP

- IC50: 12 nM
Structure (SMILES): N[C@H]1CC[C@H](Nc2cncc(-c3cccc(/C=C/C(=O)O)c3)n2)CC1
